This note sets out measurements from PubChem BioAssay AID463115 (University of Pittsburgh Molecular Library Screening Center, 2010).

Protein sequences, listed by entry. Tags and fused reporters are not part of them. Residues count along the entry.
UniProt P09958, 108-714 limits assumed: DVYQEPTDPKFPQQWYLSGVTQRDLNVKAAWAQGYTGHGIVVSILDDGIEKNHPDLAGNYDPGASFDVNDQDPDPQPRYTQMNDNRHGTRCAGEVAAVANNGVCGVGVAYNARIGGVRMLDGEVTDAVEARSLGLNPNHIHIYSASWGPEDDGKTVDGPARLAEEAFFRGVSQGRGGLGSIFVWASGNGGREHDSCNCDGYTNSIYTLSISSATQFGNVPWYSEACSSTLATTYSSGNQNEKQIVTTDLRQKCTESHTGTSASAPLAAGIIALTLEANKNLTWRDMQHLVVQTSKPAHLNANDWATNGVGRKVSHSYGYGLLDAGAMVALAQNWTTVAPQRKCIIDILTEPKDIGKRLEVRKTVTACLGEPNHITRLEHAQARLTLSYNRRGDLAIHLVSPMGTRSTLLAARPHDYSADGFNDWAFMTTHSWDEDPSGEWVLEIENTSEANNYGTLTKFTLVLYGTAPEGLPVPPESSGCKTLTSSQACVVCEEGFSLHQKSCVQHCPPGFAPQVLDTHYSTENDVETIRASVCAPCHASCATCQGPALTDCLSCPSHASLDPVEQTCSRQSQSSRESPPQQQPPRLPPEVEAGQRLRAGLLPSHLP

This is a selection; strong and weak results do not stand in their true shares. Active and inactive are the calls of the source. Cut-off read from the data, not from the text of the source: active = inhibition above about 25%; inactive = the rest.

This assay deals with Furin (Homo sapiens) (UniProt P09958). In words: human furin inhibitors, primary screen, biochemical, fluorescence intensity (AID 463115). To be noted: purified furin, fluorogenic substrate cleavage, stronger effect = higher value; at 30 µM unless noted.
In general, inhibition refers to the drop in the measured response relative to a control, in per cent. Consider `CP(=O)(Nc1ccccn1)Oc1ccc(Cl)cc1` (configuration not stated), for which the inhibition is inactive: -19.5% [at 20 µM].

For `COc1ccc(OP(C)(=O)Nc2ccccc2Br)cc1` (configuration not stated), the inhibition is inactive: -14.8%.
